For 1 substance, Km results are on record in patent US20140134690A1, “MICROBES AND METHODS FOR PRODUCING 1-PROPANOL” (University of Georgia Research Foundation, Inc., priority 2012, published 2014).

One data set concerns CC(=O)CO. In words: cells, lysate or membranes named. The following applies: other: hydroxyacetone 20-120 mM, 0.25 mM NADH, crude extract, imidazole-HCl pH 7.0, 37° C.
The next data set concerns CC(=O)C=O. The experiment in a line: cells, lysate or membranes named. The following applies: other: methylglyoxal 20-120 mM, 0.25 mM NADH, crude extract, imidazole-HCl pH 7.0, 37° C.

Take “E. coli MG1655 glycerol dehydrogenase (gldA), wild type (Escherichia coli K-12)”: the Km in the data set with CC(=O)CO amounted to 10.47 ± 0.55 mM; with CC(=O)C=O, 68.24 ± 0.05 mM.

Usually Km stands for the substrate concentration at which the rate is half of its maximum.
